# Experimental data reported in PubChem BioAssay AID743126 (The Scripps Research Institute Molecular Screening Center, 2013).
# By UniProt entry, the sequences of proteins in these tests, tags left out.
# UniProt Q9NZ20, whole entry: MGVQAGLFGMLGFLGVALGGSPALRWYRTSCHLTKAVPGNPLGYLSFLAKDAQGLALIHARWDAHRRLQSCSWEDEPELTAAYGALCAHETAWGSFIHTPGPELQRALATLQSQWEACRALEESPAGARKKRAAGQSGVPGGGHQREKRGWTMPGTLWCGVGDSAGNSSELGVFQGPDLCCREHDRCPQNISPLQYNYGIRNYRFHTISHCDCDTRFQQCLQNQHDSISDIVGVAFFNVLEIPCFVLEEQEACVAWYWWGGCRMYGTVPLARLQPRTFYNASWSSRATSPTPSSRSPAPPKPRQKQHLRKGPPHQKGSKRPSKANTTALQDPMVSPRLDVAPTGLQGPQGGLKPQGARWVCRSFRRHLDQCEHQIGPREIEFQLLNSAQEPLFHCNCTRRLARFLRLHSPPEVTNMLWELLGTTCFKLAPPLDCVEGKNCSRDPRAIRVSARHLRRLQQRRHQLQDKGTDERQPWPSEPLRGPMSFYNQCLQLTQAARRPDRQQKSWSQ
# Only a part is listed here, and it is no random draw. Some salts or complexes appear as unconnected parts, following the source record. Activity calls are given as the source filed them.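 How the source made its calls: active means inhibition above mean plus 3 SD of compounds lying within the high and low control bounds (cut at about 19% in these data); inactive means the rest.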
# Target: Group 3 secretory phospholipase A2 (Homo sapiens) (UniProt Q9NZ20)
# Assay: HGIII-sPLA2 enzyme inhibition – biochemical, QFRET, BODIPY PC-A2 liposome substrate, primary screen (AID 743126);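 further: 0% = median of test compound wells and 100% = no enzyme DMSO wells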
# Settings: QFRET BODIPY PC-A2 liposome hydrolysis, fluorescence; at 12.2 µM; stronger effect = higher value
row,SMILES,inhibition
1,O=[N+]([O-])c1cc([N+](=O)[O-])c(Nc2nnnn2CCO)c([N+](=O)[O-])c1,inactive: -1.69%
2,CCOC(=O)C(CC)C1=NC(C)(C)Cc2ccccc21.O=[N+]([O-])c1cc([N+](=O)[O-])c(O)c([N+](=O)[O-])c1 (centres undefined),inactive: 2.94%
3,CP(=O)(Nc1ccc(SC(F)(F)F)cc1)Oc1ccccc1 (centres undefined),inactive: 1.5%
4,CCCOc1ccc(NP(C)(=O)Oc2ccc(Cl)cc2)cc1 (centres undefined),inactive: 4.31%
5,COc1ccc(-c2ccccn2)cc1.O=[N+]([O-])c1cc([N+](=O)[O-])c(O)c([N+](=O)[O-])c1,inactive: -2.31%
6,COc1ccccc1OP(C)(=O)Nc1c(C)cccc1C (centres undefined),inactive: 1.6%
7,CN1CCCCC1COC(=O)C1(O)c2ccccc2CCc2ccccc21 (centres undefined),inactive: -6.54%
8,CN(Cc1cccnc1)C(=O)COc1ccc(Cl)c(Cl)c1.O=[N+]([O-])c1cc([N+](=O)[O-])c(O)c([N+](=O)[O-])c1,inactive: 7.98%
9,O=[N+]([O-])c1cc([N+](=O)[O-])c(-n2nnc3ccccc32)c([N+](=O)[O-])c1,inactive: 0.88%
10,Cc1nc2ccc3ccccc3c2s1.O=[N+]([O-])c1cc([N+](=O)[O-])c(O)c([N+](=O)[O-])c1,inactive: 4.6%
11,O=[N+]([O-])c1cc([N+](=O)[O-])c(-c2cnn(-c3ccccc3)c2)c([N+](=O)[O-])c1,inactive: 15.4%
12,Cc1cc(C)cc(OP(C)(=O)Nc2ccc(C)cc2C)c1 (centres undefined),inactive: -3.45%
13,CCOC(=O)c1ccc(NP(C)(=O)Oc2cc(C)cc(C)c2)cc1 (centres undefined),inactive: -7.77%
14,COc1ccccc1OP(C)(=O)Nc1cccc(Br)c1 (centres undefined),inactive: -2.81%
15,CP(=O)(Nc1cccc(Br)c1)Oc1ccccc1 (centres undefined),inactive: -7.06%
16,Cc1cc(C)cc(OP(C)(=O)Nc2ccccn2)c1 (centres undefined),inactive: -1%
17,Cc1ccc(C)c(NP(C)(=O)Oc2ccccc2)c1 (centres undefined),inactive: -2.07%
18,O=C(O)c1cccc(Nc2c([N+](=O)[O-])cc([N+](=O)[O-])cc2[N+](=O)[O-])c1,inactive: 1.83%
19,CC1=NCCc2c1[nH]c1ccccc21.O=[N+]([O-])c1cc([N+](=O)[O-])c(O)c([N+](=O)[O-])c1,inactive: 7.3%
20,CC(C)(C)c1ccc(OP(C)(=O)Nc2ccc(SC(F)(F)F)cc2)cc1 (centres undefined),inactive: 8.89%
21,Cc1cccc(C)c1OP(C)(N)=O (centres undefined),inactive: 8.64%
22,O=[N+]([O-])c1ccc2c(c1)C=Nc1ccccc1O2,inactive: -25.4%
23,O=[N+]([O-])c1cc([N+](=O)[O-])c(Nc2cccnc2)c([N+](=O)[O-])c1,inactive: 2.79%
24,COc1ccccc1OP(C)(=O)Nc1cc(Cl)ccc1C (centres undefined),inactive: -0.14%
25,COc1ccc(OP(C)(=O)Nc2cccc(F)c2)cc1 (centres undefined),inactive: -1.27%

row,SMILES,inhibition
1,Cc1cc(C)cc(OP(C)(N)=O)c1 (centres undefined),inactive: 5.94%
2,CCOC(=O)c1ccc(NP(C)(=O)Oc2ccccc2)cc1 (centres undefined),inactive: 1.6%
3,COc1ccccc1OP(C)(=O)Nc1ccc(C)cc1 (centres undefined),inactive: 12%
4,Cc1ccc(NP(C)(=O)Oc2ccccc2)c(C)c1 (centres undefined),inactive: -0.78%
5,CCN(CC)CCCOC(=O)C(O)(c1ccccc1)c1ccccc1,inactive: 12.1%
6,COc1ccccc1-c1ccccn1.O=[N+]([O-])c1cc([N+](=O)[O-])c(O)c([N+](=O)[O-])c1,inactive: -0.65%
7,CCc1ccc(OP(C)(=O)N2CCN(c3ccc([N+](=O)[O-])cc3)CC2)cc1 (centres undefined),inactive: -1.68%
8,CP(=O)(NC(=O)Nc1ccccc1)Oc1ccccc1 (centres undefined),inactive: 8.95%
9,Cc1cc(C)cc(OP(C)(=O)Nc2ccc(SC(F)(F)F)cc2)c1 (centres undefined),inactive: 7.5%
10,Cc1cccc(C)c1OP(C)(=O)Nc1ccc(SC(F)(F)F)cc1 (centres undefined),inactive: 9.55%
11,CP(=O)(Nc1ccc(SC(F)(F)F)cc1)Oc1ccc(Cl)cc1 (centres undefined),inactive: 7.73%
12,CP(=O)(Oc1ccccc1)OC(c1ccccc1)C(F)(F)F (centres undefined),inactive: -0.02%
13,CP(=O)(Nc1ccccn1)Oc1ccc(Cl)cc1 (centres undefined),inactive: 1.08%
14,CCOP(C)(=S)SCC(=O)NC(C)C(=O)O (centres undefined),inactive: 2.2%
15,CCOC(=O)c1ccc(NP(C)(=O)Oc2ccc(OC)cc2)cc1 (centres undefined),inactive: 0.85%
16,O=[N+]([O-])c1cc([N+](=O)[O-])c(O)c([N+](=O)[O-])c1.c1ccc(Oc2ccncc2)cc1,inactive: 13.5%
17,COc1ccccc1OP(C)(=O)Nc1ccccc1 (centres undefined),inactive: -0.52%
18,CP(=O)(Nc1ccccc1Br)Oc1ccccc1 (centres undefined),inactive: 13.3%
19,CP(=S)(Nn1cnnc1)Oc1ccccc1 (centres undefined),inactive: -9.02%
20,CP(=O)(OC12CC3CC(CC(C3)C1)C2)OC12CC3CC(CC(C3)C1)C2,inactive: 2.5%
21,CCOC(=O)c1ccc(NP(C)(=O)Oc2ccc(Cl)cc2)cc1 (centres undefined),inactive: 1.61%
22,Nc1ccc2c(ccc3cccnc32)n1.O=[N+]([O-])c1cc([N+](=O)[O-])c(O)c([N+](=O)[O-])c1,inactive: -4.93%
23,CP(=O)(Oc1ccccc1)N1CCOC1=O (centres undefined),inactive: 0.09%
24,CCc1ccc(OP(C)(=O)Nc2cccnc2)cc1 (centres undefined),inactive: 3.5%
25,COc1ccccc1OP(C)(=O)Nc1c(C)n(C)n(-c2ccccc2)c1=O (centres undefined),inactive: -5.47%

row,SMILES,inhibition
1,O=C(OCCCN1CCCC1)C(O)(c1ccccc1)C1CCCCC1 (centres undefined),inactive: 3.28%
2,CCN(CC)CC(O)COC(=O)C(O)(c1ccccc1)C1CCCCC1 (centres undefined),inactive: 0.4%
3,COc1ccc(OP(C)(=O)Nc2ccc(Br)cc2)cc1 (centres undefined),inactive: -1.29%
4,CN(C)C(=O)c1c([N+](=O)[O-])cc([N+](=O)[O-])cc1[N+](=O)[O-],inactive: -0.81%
5,CP(=O)(Nc1ccc(Cl)cc1)Oc1ccc(F)cc1 (centres undefined),inactive: 3.84%
6,CC(C)(C)c1ccc(OP(C)(=O)O)cc1,inactive: 2.58%
7,COc1ccccc1OP(C)(=O)Nc1ccccc1Br (centres undefined),inactive: 0.99%
8,CN(C)CCOC(=O)C(O)(c1ccccc1)C1CCCC1 (centres undefined),inactive: -0.23%
9,COc1ccc(OP(C)(=O)Nc2ccccn2)cc1 (centres undefined),inactive: 1.06%
10,COc1ccccc1OP(C)(=O)Nc1ccc(Br)cc1 (centres undefined),inactive: -2.98%
11,CCc1ccc(OP(C)(=O)O)cc1,inactive: 1.35%
12,CP(=O)(Nc1ccccn1)Oc1ccccc1 (centres undefined),inactive: -1.84%
13,COc1ccccc1OP(C)(=O)Nc1ccc(C)cc1C (centres undefined),inactive: 1.08%
14,O=[N+]([O-])c1cc([N+](=O)[O-])c(Nc2ccccn2)c([N+](=O)[O-])c1,inactive: -7%
15,Cc1c(NP(C)(=O)Oc2ccc(C(C)C)cc2)c(=O)n(-c2ccccc2)n1C (centres undefined),inactive: -2.56%
16,COc1ccc(OP(C)(=O)Nc2ccccc2Br)cc1 (centres undefined),inactive: 5.27%
17,COc1ccccc1OP(C)(=O)Nc1ccc(C)c(C)c1 (centres undefined),inactive: 1.28%
18,O=C1C(O)=C([N+](=O)[O-])C(=O)C(O)=C1[N+](=O)[O-],inactive: 6.8%
19,Cc1cc(C)cc(OP(C)(=O)Nc2cccc(C(F)(F)F)c2)c1 (centres undefined),inactive: -7.04%
20,CP(=O)(OCCOc1ccccc1)OCCOc1ccccc1,inactive: 6.6%
21,CCCCCCCCCCCCCCCC1C[N+](C)(C)CCOP(C)(=O)O1 (centres undefined),inactive: 1.82%
22,CP(=O)(Nc1ccc(Cl)cc1Cl)Oc1ccccc1 (centres undefined),inactive: 7.79%
23,COc1ccc(OP(C)(=O)Nc2ccc(SC(F)(F)F)cc2)cc1 (centres undefined),inactive: 13.8%
24,CCOC(=O)c1ccc(NP(C)(=O)Oc2ccc(F)cc2)cc1 (centres undefined),inactive: 4.05%
25,CCN(CC)CCCNc1ccccc1[N+](=O)[O-].O=[N+]([O-])c1cc([N+](=O)[O-])c(O)c([N+](=O)[O-])c1,inactive: 1.27%

row,SMILES,inhibition
1,CCCCCOc1ccc(NP(C)(=O)Oc2ccc(Cl)cc2Cl)cc1 (centres undefined),inactive: 1.92%
2,O=[N+]([O-])c1cc([N+](=O)[O-])c(OC2CCCCC2O)c([N+](=O)[O-])c1 (centres undefined),inactive: 1.35%
3,CP(=O)(Nc1ccccc1)Oc1ccc(F)cc1 (centres undefined),inactive: 2.35%
4,CCN(CC)CCCOC(=O)C(O)(c1ccccc1)C1CCCCC1 (centres undefined),inactive: 7.23%
5,Cc1c([N+](=O)[O-])cc([N+](=O)[O-])c(Br)c1[N+](=O)[O-],inactive: -9.09%
6,CC(C)c1ccc(OP(C)(=O)Nc2ccc(SC(F)(F)F)cc2)cc1 (centres undefined),inactive: -8.92%
7,CP(=O)(Nc1ccccc1F)Oc1ccccc1 (centres undefined),inactive: 15.8%
8,O=[N+]([O-])c1cc([N+](=O)[O-])c(Nc2ccc(Cl)cc2)c([N+](=O)[O-])c1,inactive: 4.67%
9,COc1ccc2c(c1O)-c1c(O)c(OC)cc3c1[C@H](C2)[N+](C)(C)CC3.O=[N+]([O-])c1cc([N+](=O)[O-])c([O-])c([N+](=O)[O-])c1[O-],inactive: 1.26%
10,O=C(OCCN1CCN(CCOCc2ccccc2)CC1)C(O)(c1ccccc1)c1ccccc1,inactive: -4.44%
11,O=C(OC1CN2CCC1CC2)c1ccc([N+](=O)[O-])cc1 (centres undefined),inactive: 2.35%
12,CCOP(=O)(CC)OCC,inactive: 9.14%
13,CCOP(C)(=S)SCC(=O)NC(C)(CC)C(=O)O (centres undefined),inactive: -6.71%
14,CP(=O)(Nc1ccc(SC(F)(F)F)cc1)Oc1ccc(F)cc1 (centres undefined),inactive: -0.65%
15,O=[N+]([O-])c1cc([N+](=O)[O-])c(C(F)(F)F)c([N+](=O)[O-])c1O,inactive: -14%
16,Cc1ccccc1NP(C)(=O)Nc1ccccc1C,inactive: 0.85%
17,CP(=O)(Nc1ccc2c(c1)OCCO2)Oc1ccccc1 (centres undefined),inactive: -4.48%
18,COc1ccc(NP(C)(=O)Oc2ccccc2OC)cc1 (centres undefined),inactive: -0.56%
19,CN(C)CCOC(=O)C(O)(c1ccccc1)C1CCCCC1 (centres undefined),inactive: 2.79%
20,COc1ccc(OP(C)(=O)Nc2cccc(Br)c2)cc1 (centres undefined),inactive: 5.98%
21,Cc1c(C(c2ccc3c(c2)OCO3)c2c(C)n(C)n(-c3ccccc3)c2=O)c(=O)n(-c2ccccc2)n1C.O=[N+]([O-])c1cc([N+](=O)[O-])c(O)c([N+](=O)[O-])c1,inactive: -2.04%
22,Cc1cc(-c2cccc3ccccc23)c(C)cn1.O=[N+]([O-])c1cc([N+](=O)[O-])c(O)c([N+](=O)[O-])c1,inactive: -7.68%
23,O=[N+]([O-])c1cc([N+](=O)[O-])c(NCC2CCS(=O)(=O)C2)c([N+](=O)[O-])c1 (centres undefined),inactive: 9.88%
24,O=[N+]([O-])c1ccc(OP2(=O)COCCO2)cc1 (centres undefined),inactive: 1.98%
